Measured values: patent US9181182B2, “S1P receptors modulators” (Akaal Pharma PTY LTD, priority 2008, dated 2015)

Amino acid sequences for entries named in this document (tags omitted).
UniProt P21453, whole entry: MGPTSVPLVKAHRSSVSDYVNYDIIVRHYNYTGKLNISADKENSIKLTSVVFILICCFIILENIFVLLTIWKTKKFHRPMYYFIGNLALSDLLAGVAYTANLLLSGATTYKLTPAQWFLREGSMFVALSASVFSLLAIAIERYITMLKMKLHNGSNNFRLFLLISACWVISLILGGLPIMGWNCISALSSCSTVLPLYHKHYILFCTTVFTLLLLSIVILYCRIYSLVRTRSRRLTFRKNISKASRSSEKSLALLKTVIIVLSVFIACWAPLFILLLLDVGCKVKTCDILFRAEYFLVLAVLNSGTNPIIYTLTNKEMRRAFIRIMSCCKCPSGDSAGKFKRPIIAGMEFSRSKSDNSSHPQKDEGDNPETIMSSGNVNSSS

Molecular target: S1P1 human receptor (Homo sapiens (Human), UniProt P21453)
Test: S1P1 [35S]-GTPgamaS binding assay (agonist activity)
Format: biochemical
Procedure: Selected Compounds of the Examples were evaluated at Millipore Corporation, USA, using S1P1 receptor; [^35S]-GTPgamaS binding assay. A [^35S]-GTPgamaS binding assay at Millipore was conducted by GPCR Profiler™ Custom Service Laboratory, Temecula, Calif., Millipore, Inc. to monitor dose-dependent agonist selectivity for selected Examples against the S1P1 receptors. The assay was completed with sample compounds subjected to an eight-point, four-fold dose response curve with starting concentration of 10 μM. Selectivity was determined upon initial addition of compounds followed by a 30 minute incubation at 30° C. Following compound incubation, bounded [^35S]-GTPgamaS was determined by filtration and scintillation counting.
Independently, selected compounds were evaluated for S1P1 and S1P3 agonistic activity. The S1P1 assay system was GTPgama-S35 binding in membranes from CHO K1 cells, expressing S1P1 human receptor. The S1P3 assay system was calcium mobilization in CHO K1 cells expressing S1P3 human receptor. There was no significant background response to S1P in the CHO K1 cells with either assay. Compounds were tested initially at a concentration of 10 μM.

EC50: > 24 µM
Substance: 2-Amino-2-((5-(5-3-(1-admantyl)-3-methoxyphenyl)-1,2,4-oxadiazol-3-yl)indolin-1-yl)methyl)propane-1,3-diol [Example 33]
